Test: in vivo
Settings: mouse, racemate, intravenous, 50% mortality of mice, read-out: LD50** I.v. (intravenous) mg/kg/mouse

SMILES | LD50 [mg/kg]
CCCN1CCCC[C@H]1C(=O)Nc1c(C)cccc1C [L-N-n-propylpipecolic acid-2,6-xylidide] | 7.8
CCCN1CCCCC1C(=O)Nc1c(C)cccc1C (racemic) [compound 3] | 13.6
